Compound activity as filed in PubChem.
Rev-erbA mod – modulates human Rev-erb alpha binding to DNA. activity, % at 10 µM. Rev-erbα–FITC-DNA binding, fluorescence polarization, 90 min. 370,000 tested, 0.79% active. P20393;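 active means activity above about 14%, limit read from the data; passing the limit was not always enough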;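 further: 0% = DMSO wells with 35 nM protein and 100% = DMSO wells with 750 nM protein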
GSIS activator – primary screen for activators of insulin secretion dependent on glucose, INS-1E cells, GLuc reporter luminescence; INS-1E GLuc reporter insulin secretion, 2-3 h; activation, % at 16.6 µM; 370,000 tested, 0.61% active; AID 743287;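 active means lowest replicate activation of at least 40%, so every replicate reaches that level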;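 further: 0% = median of neutral control wells and 100% = median of IBMX positive control wells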
PDI turbidity – inhibitors of human protein disulfide isomerase; PDI insulin aggregation turbidity, A650, 90 min; inhibition, % at 10 µM; 350,000 tested, 0.052% active;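 active means mean inhibition across replicates of 30% or more, whatever share of single replicates reach that level; inconclusive means mean inhibition below 30% while every single replicate reaches 30%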
SMARCA2 activ – SMARCA2 function activation, primary screen; AID 652017; MG213 cells, MMTV-luciferase reporter, dexamethasone, overnight; 370,000 tested, 1% active; activation, % at 9.1 µM; in the data active means activation above about 7.8%;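 further: 0% = vehicle wells and 100% = reference activator wells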
UUG fidelity – alters start codon recognition fidelity in yeast; S. cerevisiae UUG-firefly luciferase reporter, luminescence/redox ratio; activity score, % at 18.7 µM; actives 0.13% (n = 350,000); AID 602363;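 active = replicate mean at a twofold rise or more, about +100% in these data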;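 also: firefly luciferase made from a UUG start codon reports start codon fidelity; reporter light over untreated wells divided by growth signal over untreated wells; some hits fall short of that in this replicate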
ERp5 inh – inhibitors of human ERp5. ERp5 insulin aggregation, absorbance 650 nm, 90 min. inhibition, % at 9.99 µM. AID 651711. 350,000 tested, 0.05% active;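 active means mean replicate inhibition above about 25%, with every replicate also reaching it, limit read from the data, passing the limit was not always enough; inconclusive means only one of those two criteria met; inactive means neither criterion met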
Numbers without * were called inactive; ? = inconclusive; nt = not tested or not shown. Shown are actives, neighbours in structure and some others; about 2.1% of the full set was active somewhere.

(1) CO[C@@H]1CN(C)C(=O)c2ccc(NS(=O)(=O)c3ccc(C)cc3)cc2OC[C@@H](C)N(Cc2ccccn2)C[C@H]1C
(2) CCC(C)Sc1cccc(-c2nc3cnccn3c2NC2CCCCC2)c1 (stereo not drawn)
(3) O=S(=O)(c1ccc(Cl)nc1)N1CCc2ccccc21
(4) CCCn1c(C)cc(C)c(C#N)c1=O
(5) Cc1cc(C)n(C)c(=O)c1C#N
compound no.,1,2,3,4,5
Rev-erbA mod,nt,6,2,-4,3
GSIS activator,-18,170*,54*,43*,11
PDI turbidity,nt,-1,-3,22,6
SMARCA2 activ,nt,2,-4,-3,0
UUG fidelity,nt,-12,-1,nt,nt
ERp5 inh,0,7,?,nt,12

(6) O=C(Nc1ccccc1)N1CCCN(c2nccc(C(F)(F)F)n2)CC1
(7) Cn1cnc([N+](=O)[O-])c1S(=O)(=O)c1cccc(Cl)c1
(8) Cn1cnc([N+](=O)[O-])c1S(=O)(=O)Nc1ccccc1
(9) C[C@@H](CN1C2=NC[C@H](Cc3ccc(O)cc3)N2C[C@H]1Cc1ccc(O)cc1)NC(=O)CCC1CCCCC1
(10) Cc1ccc(C(=O)NCCN2C3=NC[C@H](Cc4ccc(O)cc4)N3C[C@H]2Cc2ccc(O)cc2)cc1Br
compound no.,6,7,8,9,10
Rev-erbA mod,1,-9,7,0,2
GSIS activator,7,104*,-9,1,28
PDI turbidity,-3,3,13,47*,40*
SMARCA2 activ,7.8*,-11,3,3,2
UUG fidelity,-23,nt,-17,6,-3
ERp5 inh,6,3,1,-1,1

(11) Cc1cc(Cl)ccc1OCc1n[nH]c(=S)n1C1CCCCC1
(12) COc1ccc(Cl)cc1-c1n[nH]c(=S)n1C1CCCCC1
(13) CCCNC(=O)[C@@H]1[C@@H](CO)[C@@H]2Cn3c(ccc(-c4cccc(F)c4)c3=O)[C@@H]2N1C(=O)CC
(14) CCOc1ccc(-n2nnnc2-c2nc3ccccc3s2)cc1
(15) O=C(Nc1ccc([N+](=O)[O-])cc1)N1CCCCCC1
compound no.,11,12,13,14,15
Rev-erbA mod,-3,-1,nt,13,3
GSIS activator,6,nt,1,90*,-1
PDI turbidity,32*,12,nt,1,1
SMARCA2 activ,-3,-5,nt,-2,0
UUG fidelity,-12,-29,nt,nt,2
ERp5 inh,nt,nt,4,nt,5

A second format for some results above:
cpd | compound | Rev-erbA mod | GSIS activator | PDI turbidity | SMARCA2 activ | UUG fidelity | ERp5 inh
6 | O=C(Nc1ccccc1)N1CCCN(c2nccc(C(F)(F)F)n2)CC1 | 1 | 7 | -3 | 7.8* | -23 | 6
7 | Cn1cnc([N+](=O)[O-])c1S(=O)(=O)c1cccc(Cl)c1 | -9 | 104* | 3 | -11 | nt | 3
8 | Cn1cnc([N+](=O)[O-])c1S(=O)(=O)Nc1ccccc1 | 7 | -9 | 13 | 3 | -17 | 1
9 | C[C@@H](CN1C2=NC[C@H](Cc3ccc(O)cc3)N2C[C@H]1Cc1ccc(O)cc1)NC(=O)CCC1CCCCC1 | 0 | 1 | 47* | 3 | 6 | -1

Next section:
(16) O=C(Nc1cccc([N+](=O)[O-])c1)N1CCCCCC1
(17) C[C@@H]1CN([C@@H](C)CO)S(=O)(=O)c2ccc(C#CC3CC3)cc2O[C@@H]1CN(C)CC1CC1
(18) CC1=CC(=O)C=C(C)C1=NOS(=O)(=O)c1ccccc1
(19) CNc1nc(OCC#N)nc(N2CCCCC2)n1
(20) CNc1nc(OCC(F)(F)F)nc(N2CCOCC2)n1
compound no.,16,17,18,19,20
Rev-erbA mod,0,nt,-1,-9,-9
GSIS activator,63*,-14,186*,44*,nt
PDI turbidity,-5,nt,6,0,8
SMARCA2 activ,-1,nt,3,2,3
UUG fidelity,-10,2,-51,nt,-10
ERp5 inh,9,5,nt,3,nt

(21) C[C@@H]1CN([C@@H](C)CO)C(=O)c2cc(NC(=O)Nc3ccc4c(c3)OCO4)ccc2O[C@H]1CN(C)S(=O)(=O)c1ccccc1
(22) O=C(O)c1ccc(Nc2cc(Cl)c3nonc3c2[N+](=O)[O-])cc1
(23) O=[N+]([O-])c1c(Nc2cccc(O)c2)cc(Cl)c2nonc12
(24) O=C(N[C@@H]1C=C[C@@H](CC(=O)N2CCCCC2)O[C@@H]1CO)c1cccc(F)c1
(25) COc1ccc(S(=O)(=O)N(C)C[C@H]2OCCCC[C@H](C)Oc3ccc(NC(=O)Nc4ccccc4)cc3C(=O)N([C@@H](C)CO)C[C@@H]2C)cc1
compound no.,21,22,23,24,25
Rev-erbA mod,nt,-6,8,nt,nt
GSIS activator,-5,-20,97*,7,1
PDI turbidity,nt,14,23,nt,nt
SMARCA2 activ,nt,1,-11,nt,nt
UUG fidelity,0,-17,-31,-8,4
ERp5 inh,-11,-2,2,2,nt

(26) COc1ccc(C(=O)c2sc(Nc3ccccc3)nc2N)cc1OC
(27) COc1ccc(C(=O)c2sc(Nc3ccccc3)nc2N)cc1
(28) C[C@H]1CCCCO[C@H](CN(C)C)[C@@H](C)CN([C@@H](C)CO)C(=O)c2cc(NC(=O)Nc3ccccc3)ccc2O1
(29) C[C@H](CO)N1C[C@H](C)[C@@H](CN(C)C(=O)Cc2ccccn2)Oc2cc(C#C[C@@H](C)O)ccc2S1(=O)=O
(30) CC(C)CC#Cc1ccc2c(c1)O[C@@H](CN(C)Cc1ccc(F)cc1)[C@H](C)CN([C@H](C)CO)S2(=O)=O
compound no.,26,27,28,29,30
Rev-erbA mod,6,-2,nt,nt,nt
GSIS activator,43*,32,25,41*,46*
PDI turbidity,10,-7,nt,nt,nt
SMARCA2 activ,4,6,nt,nt,nt
UUG fidelity,-18,-11,-9,-17,3
ERp5 inh,2,1,4,-7,4

(31) C[C@H](CO)N1C[C@H](C)[C@@H](CN(C)C(=O)CC2CC2)Oc2cc(C#CC(C)(C)O)ccc2S1(=O)=O
(32) COCC(=O)N(C)C[C@H]1Oc2cc(C#CC(C)(C)O)ccc2S(=O)(=O)N([C@@H](C)CO)C[C@H]1C
(33) C[C@@H]1CN([C@H](C)CO)C(=O)c2cc(/C=C/c3ccccc3)cnc2O[C@H]1CN(C)Cc1ccccc1
(34) CN(C)C(=O)c1ccc(-c2ccc([C@@H]3[C@H](CO)N4CCCCN(C(=O)C5CCC5)C[C@@H]34)cc2)cc1
(35) C[C@@H]1CCCCO[C@H](CN(C)C(=O)CCC(F)(F)F)[C@H](C)CN([C@H](C)CO)C(=O)c2cc(NC(=O)CCC(F)(F)F)ccc2O1
compound no.,31,32,33,34,35
Rev-erbA mod,nt,nt,nt,nt,nt
GSIS activator,44*,9,-15,nt,-6
PDI turbidity,nt,nt,nt,nt,nt
SMARCA2 activ,nt,nt,nt,nt,nt
UUG fidelity,0,4,-7,3,22
ERp5 inh,0,68*,9,-1,-1

(36) CCC(=O)N(C)C[C@H]1Oc2cc(-c3ccc(C#N)cc3)ccc2S(=O)(=O)N([C@@H](C)CO)C[C@@H]1C
(37) COCC(=O)N(C)C[C@H]1Oc2cc(C#CC(C)(C)O)ccc2S(=O)(=O)N([C@@H](C)CO)C[C@@H]1C
(38) COCC(=O)N(C)C[C@@H]1Oc2cc(C#CC(C)(C)O)ccc2S(=O)(=O)N([C@H](C)CO)C[C@H]1C
(39) COc1cccc(NC(=O)N(C)C[C@@H]2Oc3cc(C#Cc4ccc(F)cc4)ccc3S(=O)(=O)N([C@H](C)CO)C[C@@H]2C)c1
(40) O=C(C[C@@H]1C=C[C@@H](NC(=O)C2CCOCC2)[C@H](CO)O1)Nc1ccc(-c2ccccc2)cc1
compound no.,36,37,38,39,40
Rev-erbA mod,nt,nt,nt,nt,nt
GSIS activator,3,2,2,12,12
PDI turbidity,nt,nt,nt,nt,nt
SMARCA2 activ,nt,nt,nt,nt,nt
UUG fidelity,25,5,1,-5,-6
ERp5 inh,85*,47*,-37,3,7

(41) O=c1[nH]nc(-c2ccccc2)c2ccccc12
(42) c1ccc(-c2n[nH]c3ccccc23)cc1
(43) Cc1cc(C)nc(N2CCCC(C(=O)NCc3ccc4c(c3)OCO4)C2)n1 (stereo not drawn)
(44) CCCc1cc(N2CCCC(C(=O)NCc3ccc4c(c3)OCO4)C2)n2ncnc2n1 (stereo not drawn)
(45) COc1ccc(C(=O)NCC(=O)OCC(=O)NC(=O)c2ccc(C(C)(C)C)cc2)cc1OC
(46) COc1ccc(C(=O)NCC(=O)OCC(=O)Nc2sccc2C#N)cc1OC
compound no.,41,42,43,44,45,46
Rev-erbA mod,-1,0,1,-1,-3,-2
GSIS activator,66*,-7,3,54*,24,51*
PDI turbidity,5,0,-3,-3,-4,8
SMARCA2 activ,2,nt,1,-3,-1,0
UUG fidelity,-7,2,nt,-20,21,nt
ERp5 inh,4,5,-8,0,-3,1
